From US20240132578A1 (published 2024)

Molecular target: aMLV envelope on pseudotyped virus (negative control) (aMLV)
Assay: cell-based or functional assay

B1: 1456_P20 (PG20) (antibody, V domains shown)
VH: QVRLVQSGPEVKKPGSSVTVSCQASGGTFSSYAFTWVRQAPGQGLEWLGMVTPIFGEAKYSQRFEGRVTITADESTSTTSIELRGLTSEDTAIYYCARDRRAVPIATDNWLDPWGQGTLVTVSS
VL: DIQLTQSPSSLSASVGDRVSITCRASQTINNYLNWYQQTPGKAPKLLIYGASNLQNGVPSRFSGSGSGTDFTLTISSLQPEDFATYYCQQSFSTPRTFGQGTRLDIKR
IC50, Neutralizing Antibody Assay, Virus/Ab Incubation 1 hour: > 50 µg/mL | IC50, Neutralizing Antibody Assay, Virus/Ab Incubation 18 hour: > 50 µg/mL
